49 compounds from patent publication US7893077B2, “Bisaryl-sulfonamides” (Amgen Inc., priority 2004, dated 2011) can be followed below.

Chains of the proteins cited; added tags and fusions are not shown.
UniProt P37231, whole entry: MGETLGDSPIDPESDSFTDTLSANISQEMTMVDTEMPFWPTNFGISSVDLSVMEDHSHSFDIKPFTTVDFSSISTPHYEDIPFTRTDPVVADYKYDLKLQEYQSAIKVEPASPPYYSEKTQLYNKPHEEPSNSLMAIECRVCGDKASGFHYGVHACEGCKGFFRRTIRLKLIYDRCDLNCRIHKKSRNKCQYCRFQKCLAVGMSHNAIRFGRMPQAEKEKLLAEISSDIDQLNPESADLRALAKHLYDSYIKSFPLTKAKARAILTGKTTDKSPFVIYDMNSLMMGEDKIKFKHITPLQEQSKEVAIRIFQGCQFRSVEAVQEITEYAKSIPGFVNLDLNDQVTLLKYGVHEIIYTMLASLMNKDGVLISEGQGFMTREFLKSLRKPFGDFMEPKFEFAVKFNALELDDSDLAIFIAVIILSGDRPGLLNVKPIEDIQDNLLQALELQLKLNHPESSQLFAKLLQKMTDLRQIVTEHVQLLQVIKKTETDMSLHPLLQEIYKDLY

Each structure is given as a SMILES string.

The target of the assay is PPARγ (Homo sapiens, UniProt P37231). In words: PPARγ ligand binding assay utilizing [3H]-BRL 49653 as the radioligand (filtration). Particulars: read-out: PPARγ Binding IC50 Filtration; concentration required to reduce by 50% the specific binding of [3H]-BRL 49653. An excerpt:
The compounds of the present invention can be evaluated for modulation of the PPARγ receptor using assays such as those described in Jiang, et al., Nature 391:82-86 (1998), Ricote, et al., Nature 391:79-82 (1998) and Lehmann, et al., J. Biol. Chem. 270(12): 12953-12956 (1995). Alternatively, the compounds can be evaluated for their ability to displace radiolabeled BRL 49653 from a PPARγ-GST fusion protein as follows:
PPARγ-GST fusion protein (prepared according to standard procedures), [^3H]-BRL 49653 having 50 Ci/mmol specific activity, Polyfiltronics Unifilter 350 filtration plate and glutathione-Sepharose® beads (from Pharmacia: washed twice with 10× binding buffer in which BSA and DTI can be left out).
Binding buffer (10 mM Tris-HCl, pH 8.0, 50 mM KCl, 10 mM DTT, 0.02% BSA and 0.0 1% NP-40) is added in 80-μL amounts to the wells of the filtration plate. The test compound is then added in 10 μL of DMSO. The PPARγ-GST fusion protein and radiolabeled BRL compound are premixed in binding buffer containing 10 mM DTT and added in 10-μL amounts to the wells of the plate to provide final concentrations of 1 µg/well of PPARγ-GST fusion protein and 10 nM [^3H]-BRL 49653 compound. The plate is incubated for 15 min. Glutathione-agarose bead is added in 50 μL of binding buffer, and the plate is vigorously shaken for one hour. The plate is washed four times with 200 μL/well of binding buffer (without BSA and DTT). The bottom of the plate is sealed and 200 μL/well of scintillation cocktail is added. The top of the plate is then sealed and the radioactivity is determined.
IC50 values are defined as the concentration of test compounds required to reduce by 50% the specific binding of [^3H]-BRL 49653 and are represented by (+)<30 μM; (++)<10 μM; (+++)<1 μM.
With `CC(=O)c1cc(NS(=O)(=O)c2cccc(C#N)c2)cc(Cl)c1Oc1ccc(S(=O)(=O)N2CCOCC2)cc1`, the IC50 is under 30000 nM. For `O=S(=O)(Nc1cnc(Sc2ccc(S(=O)(=O)N3CCCCC3)cc2)nc1)c1ccc(Cl)cc1Cl`, the IC50 is under 10000 nM. Take `CC1CCCN(S(=O)(=O)c2ccc(Oc3c(Cl)cc(NS(=O)(=O)c4ccc(C(F)(F)F)cc4Cl)cc3Cl)cc2)C1` (stereo not shown): the IC50 was under 1000 nM. In the case of `CCN(CC)S(=O)(=O)c1ccc(Oc2ccc(NS(=O)(=O)c3ccc(Cl)cc3Cl)cc2C(C)=O)cc1`, the IC50 was under 10000 nM.

With `CC(=O)c1cc(NS(=O)(=O)c2ccc(Cl)c(Cl)c2)cc(Cl)c1Oc1ccc(S(=O)(=O)N2CCOCC2)cc1`, the IC50 is under 1000 nM.

Regarding `CC(=O)Nc1ccc(S(=O)(=O)Nc2cc(Cl)c(Oc3ccc(S(=O)(=O)N4CCOCC4)cc3)c(C(C)=O)c2)cc1Cl`, the IC50 is under 10000 nM. Take `C=C(C)CC(=O)c1cc(NS(=O)(=O)c2ccc(Cl)cc2Cl)ccc1Oc1ccc(S(=O)(=O)N2CCCCC2)c(C)c1`: the IC50 was under 1000 nM. On to `O=S(=O)(Nc1cc(Cl)c(Oc2ccc(S(=O)(=O)N3CCCCC3)cc2)c(Cl)c1)c1ccc(C(F)(F)F)cc1Cl`, for which the IC50 was under 1000 nM.

In the case of `Cc1cc(S(=O)(=O)Nc2ccc(Oc3ccc(S(=O)(=O)N4CCCCC4)cc3)c(COC(C)C)c2)c(Cl)cc1Cl`, the IC50 was under 1000 nM.

As to `O=S(=O)(Nc1ccc(Oc2ccc(S(=O)(=O)N3CCCCC3)cc2)c(Cl)c1)c1ccc(Cl)cc1Cl`, the IC50 was under 10000 nM. Regarding `O=S1(=O)CCN(S(=O)(=O)c2ccc(Oc3c(Cl)cc(NS(=O)(=O)c4ccc(C(F)(F)F)cc4Cl)cc3Cl)cc2)CC1`, the IC50 is under 1000 nM.

Take `Cc1cc(S(=O)(=O)Nc2ccc(Oc3ccc(S(=O)(=O)N4CCCC4)c(C)c3)c(C(=O)NC(C)C)c2)c(Cl)cc1Cl`: the IC50 is under 1000 nM. Regarding `Cc1nc(-c2cc(NS(=O)(=O)c3ccc(Cl)cc3Cl)ccc2Oc2ccc(S(=O)(=O)N3CCOCC3)cc2)cs1`, the IC50 is under 1000 nM. For the compound `Cc1nc(-c2cc(NS(=O)(=O)c3ccc(C(F)(F)F)cc3Cl)ccc2Oc2ccc(S(=O)(=O)N3CCOCC3)cc2)cs1`, the IC50 is under 1000 nM. `Cc1cc(S(=O)(=O)N2CCCCC2)ccc1Oc1c(Cl)cc(NS(=O)(=O)c2ccc(C(F)(F)F)cc2Cl)cc1Cl`: the IC50 is under 1000 nM.

With `CC(=O)c1cc(NS(=O)(=O)c2ccccc2C)cc(Cl)c1Oc1ccc(S(=O)(=O)N2CCOCC2)cc1`, the IC50 was under 1000 nM.

For the compound `CC(=O)c1cc(NS(=O)(=O)c2ccc(F)c(F)c2F)cc(Cl)c1Oc1ccc(S(=O)(=O)N2CCOCC2)cc1`, the IC50 is under 10000 nM. Regarding `CC(=O)c1cc(NS(=O)(=O)c2c(Cl)cc(C(F)(F)F)cc2Cl)cc(Cl)c1Oc1ccc(S(=O)(=O)N2CCOCC2)cc1`, the IC50 was under 10000 nM.

Turning to `COC(=O)CS(=O)(=O)c1ccc(Sc2c(Cl)cc(NS(=O)(=O)c3ccc(C(F)(F)F)cc3Cl)cc2Cl)cc1`, the IC50 is under 1000 nM.

In the case of `CC(=O)c1cc(NS(=O)(=O)c2cc(Cl)cc(Cl)c2)cc(Cl)c1Oc1ccc(S(=O)(=O)N2CCOCC2)cc1`, the IC50 is under 10000 nM. Consider `O=S(=O)(Nc1cc(Cl)c(Oc2ccc(S(=O)(=O)N3CC[C@H](O)C3)cc2)c(Cl)c1)c1ccc(C(F)(F)F)cc1Cl`, for which the IC50 was under 1000 nM. The figure for `CC(=O)c1cc(NS(=O)(=O)c2cc(C(F)(F)F)ccc2Cl)cc(Cl)c1Oc1ccc(S(=O)(=O)N2CCOCC2)cc1` is under 1000 nM; for `CCN(CC)S(=O)(=O)c1ccc(Oc2ccc(NS(=O)(=O)c3ccc(Cl)cc3Cl)cc2C)cc1` it is under 10000 nM. Regarding `CC(=O)c1cc(NS(=O)(=O)c2cccc(F)c2)cc(Cl)c1Oc1ccc(S(=O)(=O)N2CCOCC2)cc1`, the IC50 is under 10000 nM. Consider `CC(C)C(=O)c1cc(NS(=O)(=O)c2ccc(Cl)cc2Cl)ccc1Oc1ccc(S(=O)(=O)N2CCCCC2)cc1`, for which the IC50 was under 1000 nM.

As for `O=S(=O)(Nc1cc(Cl)c(Oc2ccc(S(=O)(=O)C3CCOCC3)cc2)c(Cl)c1)c1ccc(C(F)(F)F)cc1Cl`, the IC50 is under 1000 nM. As for `C/C=C/C(=O)c1cc(NS(=O)(=O)c2ccc(Cl)cc2Cl)ccc1Oc1ccc(S(=O)(=O)N2CCCCC2)c(C)c1`, the IC50 is under 1000 nM. As for `CC(=O)c1cc(NS(=O)(=O)c2ccc(C#N)cc2)cc(Cl)c1Oc1ccc(S(=O)(=O)N2CCOCC2)cc1`, the IC50 was under 1000 nM. On to `CCCC(=O)c1cc(NS(=O)(=O)c2ccc(Cl)cc2Cl)ccc1Oc1ccc(S(=O)(=O)N(CC)CC)cc1`, for which the IC50 was under 1000 nM. Take `CCN(CC)S(=O)(=O)c1ccc(Oc2ccc(NS(=O)(=O)c3ccc(OC(F)(F)F)cc3)cc2C)cc1`: the IC50 was under 30000 nM.

With `O=S(=O)(Nc1cc(Cl)c(Oc2ccc(S(=O)(=O)N3CCCCCC3)cc2)c(Cl)c1)c1ccc(C(F)(F)F)cc1Cl`, the IC50 is under 1000 nM.

As to `CCc1cc(S(=O)(=O)N2CCOCC2)ccc1Oc1c(Cl)cc(NS(=O)(=O)c2ccc(Cl)cc2Cl)cc1Cl`, the IC50 was under 1000 nM. For `CC(=O)c1cc(NS(=O)(=O)c2ccc(OC(F)(F)F)cc2)cc(Cl)c1Oc1ccc(S(=O)(=O)N2CCOCC2)cc1`, the IC50 was under 1000 nM. With `CCCC(=O)c1cc(NS(=O)(=O)c2ccc(Cl)cc2Cl)ccc1Sc1ccc(S(=O)(=O)N2CCOCC2)cn1`, the IC50 was under 1000 nM.

On to `CC(=O)c1cc(NS(=O)(=O)c2ccccc2OC(F)(F)F)cc(Cl)c1Oc1ccc(S(=O)(=O)N2CCOCC2)cc1`, for which the IC50 is under 1000 nM. The figure for `Cc1cc(Oc2ccc(NS(=O)(=O)c3ccc(C(F)(F)F)cc3Cl)cc2C(=O)NCC(C)C)ccc1S(=O)(=O)N1CCCCC1` is under 1000 nM; for `CC(=O)c1cc(NS(=O)(=O)c2ccccc2F)cc(Cl)c1Oc1ccc(S(=O)(=O)N2CCOCC2)cc1` it is under 10000 nM. With `CCOC(=O)c1cc(NS(=O)(=O)c2cc(C)c(Cl)cc2Cl)ccc1Oc1ccc(S(=O)(=O)N2CCOCC2)c(C)c1`, the IC50 is under 10000 nM. For `CCNC(=O)c1cc(NS(=O)(=O)c2ccc(OC(F)(F)F)cc2)ccc1Oc1ccc(S(=O)(=O)N2CCCC2)c(C)c1`, the IC50 is under 10000 nM. Turning to `CCc1cc(S(=O)(=O)N2CCOCC2)ccc1Oc1c(Cl)cc(NS(=O)(=O)c2ccc(C(F)(F)F)cc2Cl)cc1Cl`, the IC50 is under 1000 nM. The figure for `CC(C)OC(=O)c1cc(NS(=O)(=O)c2ccc(C(F)(F)F)cc2Cl)cc(Cl)c1Oc1ccc(S(=O)(=O)N2CCOCC2)cc1` is under 1000 nM; for `CC(=O)c1ccc(S(=O)(=O)Nc2cc(Cl)c(Oc3ccc(S(=O)(=O)N4CCOCC4)cc3)c(C(C)=O)c2)cc1` it is under 1000 nM. With `CC(=O)c1cc(NS(=O)(=O)c2cccc(C)c2)cc(Cl)c1Oc1ccc(S(=O)(=O)N2CCOCC2)cc1`, the IC50 is under 10000 nM. Take `Cc1cc(S(=O)(=O)Nc2ccc(Oc3ccc(S(=O)(=O)N4CCOCC4)cc3)c(C(=O)OC(C)C)c2)c(Cl)cc1Cl`: the IC50 was under 1000 nM. Turning to `CC(=O)c1cc(NS(=O)(=O)c2cccc(C(F)(F)F)c2)cc(Cl)c1Oc1ccc(S(=O)(=O)N2CCOCC2)cc1`, the IC50 was under 10000 nM.

For the compound `CC(=O)c1cc(NS(=O)(=O)c2ccccc2)cc(Cl)c1Oc1ccc(S(=O)(=O)N2CCOCC2)cc1`, the IC50 is under 10000 nM.

With `CC(=O)c1cc(NS(=O)(=O)c2ccc(C(C)C)cc2)cc(Cl)c1Oc1ccc(S(=O)(=O)N2CCOCC2)cc1`, the IC50 was under 10000 nM. Consider `Cc1cc(S(=O)(=O)Nc2ccc(Oc3ccc(S(=O)(=O)N4CCCCC4)cc3)c(C(=O)N3CCCC3)c2)c(Cl)cc1Cl`, for which the IC50 was under 1000 nM. Under `CC(C)NC(=O)c1cc(NS(=O)(=O)c2ccc(C(F)(F)F)cc2Cl)ccc1Oc1ccc(S(=O)(=O)N2CCCCC2)cc1` stands under 1000 nM.
